## Measured affinities in a library of Ab-91 heavy chain variants

Data: MIT Lincoln Laboratory AlphaSeq set, Engelhart et al. 2022, doi:10.1038/s41597-022-01779-4, as distributed in FLAb.

All variants were tested on one target, the spike HR2 peptide PDVDLGDISGINAS (SARS-CoV-2).

The variants keep the light chain, the linker and the frameworks of Ab-91 (scFv order VL, a (GGGGS)3 linker, VH).
VL: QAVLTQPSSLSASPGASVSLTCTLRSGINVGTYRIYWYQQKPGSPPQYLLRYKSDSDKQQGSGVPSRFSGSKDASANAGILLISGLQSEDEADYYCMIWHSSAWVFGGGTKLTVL
VH: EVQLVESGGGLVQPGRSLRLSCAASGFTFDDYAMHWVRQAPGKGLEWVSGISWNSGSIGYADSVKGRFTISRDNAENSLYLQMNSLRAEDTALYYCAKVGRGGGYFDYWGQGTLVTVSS

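The parent was found by panning a naive human phage display library on the peptide. The library (AAYL51) carries one to three amino acid substitutions per variant, with no insertions or deletions. The scFvs were displayed on barcoded MATa yeast, the peptide on MATalpha yeast. Binding brings cells together so that they mate, and sequencing counts the barcode pairs among the diploids. Scores were corrected for input abundance and mapped to Kd with protein pairs of known affinity run in the same pool. Each pool was mated in three replicate cultures.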

Substitutions are numbered in sequence along the VH above, starting at 1 (not Kabat).
Numbers give log10(Kd / nM), so 0 is 1 nM and 3 is 1 µM. Smaller is tighter.
The mean shown is taken over the replicates in which the pair was detected.
An entry "nd" has no value in the source: the pair was not observed among the diploids in that replicate. This suggests poor binding but is not conclusive.
Parent in this assay: reference entry 1.86, copy in this library 0.88.
As a blank, each scFv also met three strains without target: over library AAYL51, 21% of these pairings were detected, typically at 4.54 and seldom below 3.26. The control count says in how many pairings with the empty strains this scFv gave a signal, with their mean in brackets.

changes	log10 Kd, replicates	mean log10 Kd (nM)	empty controls
F29S I51R N54Y	nd / nd / nd	nd	1/9 (2.12)
F27K G59Y Y108T	nd / nd / nd	nd	1/9 (3.76)
S52Y D62S G104S	6.39 / 5.22 / nd	5.81	4/9 (4.90)
H35Q G59P G102E	nd / nd / nd	nd	0/9
Y32L G56D V99K	nd / nd / nd	nd	1/9 (3.17)
M34R Y60L G100N	nd / 4.27 / nd	4.27	1/9 (5.17)
H35D W53G	nd / 4.75 / nd	4.75	4/9 (4.12)
F29K D31N I58D	4.32 / 5.66 / 5.70	5.23	6/9 (5.17)
A33L V64T Y105M	nd / nd / nd	nd	0/9
F29R G56W G100R	nd / nd / nd	nd	4/9 (4.46)
I58P V99F G104H	5.29 / nd / 4.06	4.67	1/9 (3.06)
F29I G100L R101F	nd / 4.72 / 5.59	5.15	6/9 (4.90)
T28K Y32P Y108A	2.85 / 2.51 / 2.83	2.73	5/9 (4.65)
S57K Y60S G103K	3.33 / nd / nd	3.33	2/9 (3.59)
D30A S55D D62F	4.28 / 4.07 / nd	4.18	6/9 (4.44)
D30R D62M S63W	2.56 / 2.45 / 2.43	2.48	0/9
T28F G56M Y108W	2.28 / 2.90 / 1.81	2.33	0/9
M34I G102A	5.03 / 5.08 / 5.28	5.13	2/9 (4.56)
G26Q S52F D107F	nd / nd / nd	nd	0/9
Y32R G59M F106P	nd / nd / nd	nd	0/9
T28G D31G Y32H	nd / 5.05 / nd	5.05	3/9 (4.72)
G26R W53P G102R	nd / nd / nd	nd	1/9 (4.95)
V99I F106V	2.88 / 3.53 / 3.25	3.22	1/9 (3.73)
G56W I58G G104F	4.36 / nd / nd	4.36	4/9 (4.41)
S55N G103T Y105E	nd / 4.08 / 4.50	4.29	4/9 (4.75)
S63H G102P	nd / 4.90 / nd	4.90	4/9 (5.19)
D30H I51P	nd / 4.89 / nd	4.89	0/9
I58D D62C	4.24 / 4.80 / nd	4.52	5/9 (5.19)
S55I A61T G100F	nd / nd / nd	nd	0/9
F29H A61S S63R	2.52 / 2.22 / 2.46	2.40	4/9 (4.35)
S52N G56F Y105L	4.54 / 4.11 / 5.36	4.67	6/9 (4.90)
D31L G100K D107Y	4.97 / nd / nd	4.97	3/9 (4.32)
A33P I51P G102M	4.10 / 5.23 / nd	4.67	4/9 (4.47)
F29K S55I	4.53 / 5.27 / 4.30	4.70	4/9 (4.12)

The opening 3 entries, copied out:

changes	log10 Kd, replicates	mean log10 Kd (nM)	empty controls
F29S I51R N54Y	nd / nd / nd	nd	1/9 (2.12)
F27K G59Y Y108T	nd / nd / nd	nd	1/9 (3.76)
S52Y D62S G104S	6.39 / 5.22 / nd	5.81	4/9 (4.90)